The values that follow are results of earlier work, collected in patent US20160058705A1, “COMPOSITIONS AND METHODS FOR TREATING CARDIOVASCULAR AND PULMONARY DISEASES AND DISORDERS WITH APELIN” (priority 2014, published 2016).

For this data set the following is noted: Japp et al. (2008), cited from earlier work.

Read-outs that look alike come from different tables or passages of the source.

With apelin, the plasma half-life result is recorded as “less than 8 minutes”. The plasma half-life (listed as regular commercial apelin) is at most 8 min.
